Assay [1] can be described thus: Selectivity ratio of IC50 for inhibition of METTL3/METTL14 (unknown origin) to IC50 for inhibition of METTL1/WDR4 (unknown origin).
Assay [2] is described as follows: Selectivity ratio of IC50 for inhibition of METTL3/METTL14 (unknown origin) to IC50 for inhibition of METTL16 (unknown origin).

Turning to `CCc1cc(N(C)CCOC)c2ccc(CCc3cncc(-n4cc(-c5ccn(C)n5)c5c(N)ncnc54)c3)cc2n1`, the Ratio IC50 in assay [1] and in assay [2] was more than 100 each time. Take `CCc1cc(NCCOC)c2ccc(CCc3cncc(-n4cc(-c5ccn(C)n5)c5c(N)ncnc54)c3)cc2n1`: the Ratio IC50 in assay [1] and in assay [2] was more than 100 in each case. For the compound `CNc1ccc2ccc(OCc3cncc(-n4cc([C@@H]5CCCO5)c5c(N)ncnc54)c3)cc2n1`, the Ratio IC50 in assay [1] and in assay [2] was more than 100 in each case. In the case of `Cn1ccc(-c2cn([C@@H]3O[C@H](COc4ccc5ccc(N6CCC6)nc5c4)[C@@H](O)[C@@H]3F)c3ncnc(N)c23)n1`, the Ratio IC50 in assay [1] and in assay [2] was more than 100 throughout. Consider `CNc1ccc2ccc(CCc3cncc(-n4cc(-c5ccn(C)n5)c5c(N)ncnc54)c3)cc2n1`, for which the Ratio IC50 in assay [1] is more than 100.

Source of the values: ChEMBL document CHEMBL5338724, “METTL3 from Target Validation to the First Small-Molecule Inhibitors: A Medicinal Chemistry Journey” (J Med Chem, 2023).
